Experimental data as given in patent publication US20050180997A1, “Drug delivery system” (priority 2004, published 2005).

Key:
Format in all cases: cell-based
SK-BR3 cells [1] = assay: FACS binding of immuno-emulsion versus free trastuzumab; conditions: 1 hour
Description: For confirmation purposes, additional studies were performed using FACS analysis (Fluorescent activated cell sorting analysis). […] The cells were washed with PBS three times successively and then FITC-conjugated secondary antibody was added (in a final dilution of 1:50). Cells were washed again with PBS and then were analyzed by FACS.

SK-BR3 cells [2] = assay: Binding of coumarin-6 labeled emulsions to fixed cells, confocal microscopy; conditions: 1 hour incubation at room temperature, dilution 1:1000, fixed cells
Description: However, in order to visualize the blank emulsion also, the emulsions were labeled with lipophilic fluorescent probe coumarin-6 (Polyscience Inc, Warrington, Pa.) in a ratio of 1:1000 coumarin to Lipoid E80 in the oil phase (7).
Cells were fixed on cover-slips, non-specific binding was blocked with 5% BSA. Incubation over 1 h with the labeled blank emulsion and immuno-emulsion (final dilution of 1:1000) was carried out at room temperature.
The cells were washed three times successively with PBS and then observed using Confocal microscope. A qualitative significant difference in binding to SK-BR3 cells between blank emulsion and the immuno-emulsion is observed as reflected by the difference in the intensity of the fluorescence.

SK-BR3 cells [3] = assay: Uptake study of coumarin-6 labeled emulsions, confocal microscopy; conditions: 37° C., 5, 15, 30 min
Description: SK-BR3 cells were incubated at 37° C. with either blank emulsion or immuno-emulsion labeled with coumarin-6, over different incubation times: 5, 15, 30 min.
Cells were washes with PBS three times successively and then were fixed and visualized with Zeiss Confocal Microscope.

immuno-emulsion: cationic emulsion containing N-(1-stearyl)-maleimide cross-linker conjugated to thiolated trastuzumab
affinity extent compared to the same quantity of the free antibodies (SK-BR3 cells [1]): around 5% | binding to SK-BR3 cells (fluorescence intensity, qualitative) (SK-BR3 cells [2]): binds extensively | binding to cells in uptake study (qualitative) (SK-BR3 cells [3]): bound more strongly
